Literature values in patent publication US20210275657A1, “NEOANTIGENS AND USES THEREOF” (BioNTech US Inc., priority 2018, published 2021).

Settings: more than 25 clinical trials; cited from earlier work

In the case of poly-ICLC, the toxicity profile is listed as “relatively benign toxicity profile”.
